In PubChem BioAssay AID640 (Columbia University Molecular Screening Center, 2007):
Only a part is listed here, and it is no random draw. The source made the active and inactive calls.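 How the source made its calls: active means inhibition at 2 µM at or above a set limit, the screen mean plus 3 SD (cut at about 24% in these data); inactive means the rest.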

Protein sequences, listed by entry. Tags and fused reporters are not part of them.
UniProt Q9Y2R2, whole entry: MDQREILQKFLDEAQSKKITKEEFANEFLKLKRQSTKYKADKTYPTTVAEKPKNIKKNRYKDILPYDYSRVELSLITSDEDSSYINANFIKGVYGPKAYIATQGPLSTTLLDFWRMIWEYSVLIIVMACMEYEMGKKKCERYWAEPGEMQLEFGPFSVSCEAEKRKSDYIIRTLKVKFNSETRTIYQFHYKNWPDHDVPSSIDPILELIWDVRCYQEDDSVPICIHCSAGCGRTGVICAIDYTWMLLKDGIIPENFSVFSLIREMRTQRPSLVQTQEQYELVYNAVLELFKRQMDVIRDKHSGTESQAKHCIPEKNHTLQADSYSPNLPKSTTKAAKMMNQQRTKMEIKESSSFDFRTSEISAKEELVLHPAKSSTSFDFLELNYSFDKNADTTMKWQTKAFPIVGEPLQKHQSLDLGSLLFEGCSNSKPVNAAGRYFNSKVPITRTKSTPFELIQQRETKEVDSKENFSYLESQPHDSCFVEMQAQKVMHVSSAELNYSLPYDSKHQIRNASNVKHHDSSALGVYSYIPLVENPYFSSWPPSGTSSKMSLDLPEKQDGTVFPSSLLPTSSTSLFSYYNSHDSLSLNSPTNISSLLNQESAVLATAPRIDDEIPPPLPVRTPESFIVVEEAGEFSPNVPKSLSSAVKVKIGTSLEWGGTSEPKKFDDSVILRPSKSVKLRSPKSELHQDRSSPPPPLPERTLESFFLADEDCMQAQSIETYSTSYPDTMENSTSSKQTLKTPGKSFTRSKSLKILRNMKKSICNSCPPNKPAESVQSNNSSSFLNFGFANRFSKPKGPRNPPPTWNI

What follows are molecules tested against Tyrosine-protein phosphatase non-receptor type 22 (Homo sapiens) (UniProt Q9Y2R2) (assay: PTPN22 phosphatase inhibitors, primary screen, biochemical, DiFMUP fluorescence, 2 µM (AID 640;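 further: 0% = DMSO with enzyme and 100% = enzyme fully blocked by orthovanadate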)). Conditions: recombinant LYP catalytic domain, at 2 µM, hits give high values.

Row | SMILES | inhibition
1 | CP(=O)(Nc1ccccc1F)Oc1ccccc1 (stereo not given) | inactive: 0.4%
2 | CCN(CC)CCCOC(=O)C(O)(c1ccccc1)C1CCCCC1 (stereo not given) | inactive: 4.2%
3 | CP(=O)(Nc1ccccc1)Oc1ccc(F)cc1 (stereo not given) | inactive: 2.7%
4 | COc1ccc(OP(C)(=O)Nc2cccc(Br)c2)cc1 (stereo not given) | inactive: 10.3%
5 | CN(C)CCOC(=O)C(O)(c1ccccc1)C1CCCCC1 (stereo not given) | inactive: 3.4%
6 | CCOP(C)(=S)SCC(=O)NC(C)(CC)C(=O)O (stereo not given) | inactive: -4.8%
7 | CP(=O)(Nc1ccc2c(c1)OCCO2)Oc1ccccc1 (stereo not given) | inactive: -8.1%
8 | CCN(CC)CC(O)COC(=O)C(O)(c1ccccc1)C1CCCCC1 (stereo not given) | inactive: 4.7%
9 | COc1ccccc1OP(C)(=O)Nc1c(C)n(C)n(-c2ccccc2)c1=O (stereo not given) | inactive: -8.7%
10 | CP(=O)(Oc1ccccc1)N1CCOC1=O (stereo not given) | inactive: 9.8%
11 | CC(C)(C)c1ccc(OP(C)(=O)O)cc1 | inactive: 5%
12 | CP(=O)(Nc1ccc(Cl)cc1)Oc1ccc(F)cc1 (stereo not given) | inactive: -5.5%
13 | CP(=O)(OC12CC3CC(CC(C3)C1)C2)OC12CC3CC(CC(C3)C1)C2 | inactive: -8.6%
14 | COc1ccccc1OP(C)(=O)Nc1ccc(C)c(C)c1 (stereo not given) | inactive: 0.8%
15 | Cc1nc2ccc3ccccc3c2o1.O=[N+]([O-])c1cc([N+](=O)[O-])c(O)c([N+](=O)[O-])c1 | inactive: -6.3%
16 | COc1ccc(OP(C)(=O)Nc2ccccn2)cc1 (stereo not given) | inactive: 1.6%
17 | CN(C)CCOC(=O)C(O)(c1ccccc1)C1CCCC1 (stereo not given) | inactive: -15.4%
18 | Cc1c(NP(C)(=O)Oc2ccc(C(C)C)cc2)c(=O)n(-c2ccccc2)n1C (stereo not given) | inactive: 6.1%
19 | CP(=O)(Nc1ccccn1)Oc1ccccc1 (stereo not given) | inactive: -1.1%
20 | COc1ccccc1OP(C)(=O)Nc1ccc(C)cc1C (stereo not given) | inactive: -6.2%
21 | CCc1ccc(OP(C)(=O)O)cc1 | inactive: -2.2%
22 | COc1ccc(OP(C)(=O)Nc2cccc(F)c2)cc1 (stereo not given) | inactive: -1.9%
23 | CP(=S)(Nn1cnnc1)Oc1ccccc1 (stereo not given) | inactive: 2.8%
24 | CP(=O)(NC(=O)Nc1ccccc1)Oc1ccccc1 (stereo not given) | inactive: -9.3%
25 | CP(=O)(Nc1ccccn1)Oc1ccc(Cl)cc1 (stereo not given) | inactive: 2.5%
26 | Cc1nc2ccc3ccccc3c2s1.O=[N+]([O-])c1cc([N+](=O)[O-])c(O)c([N+](=O)[O-])c1 | inactive: 5.3%
27 | COc1ccccc1OP(C)(=O)Nc1c(C)cccc1C (stereo not given) | inactive: -14.2%
28 | Cc1cc(C)cc(OP(C)(=O)Nc2ccc(C)cc2C)c1 (stereo not given) | inactive: -5.6%
29 | Cc1ccc(C)c(NP(C)(=O)Oc2ccccc2)c1 (stereo not given) | inactive: 15.5%
30 | Cc1cc(C)cc(OP(C)(=O)Nc2ccccn2)c1 (stereo not given) | inactive: 0.5%
